Values quoted from earlier work in publication PMC7037052, “Predicting the Blood-Brain Barrier Permeability of New Drug-Like Compounds via HPLC with Various Stationary Phases” (Molecules, 2020).

Set-up: method as in PMID 16331406
Settings: rats; BB = Cbrain/Cplasma; training set; cited from earlier work

Structure (SMILES) | log BBexp.
Cc1csc(N=C(N)N)n1 [Compound 7120-01-6] | −0.04
O=C1CCCN1CCCCN1CCN(c2cc(C(F)(F)F)ccn2)CC1 [Compound 142494-12-0] | 0.16
